Measured values: patent publication US9481646B2, “Low calcemic, highly antiproliferative, analogs of calcitriol” (The Johns Hopkins University, priority 2007, dated 2016)

Target: T1, recombinant human VDR and a reporter gene containing a vitamin D response element (VDRE) (Homo sapiens, UniProt P11473)
T1 sequence (P11473 1-427): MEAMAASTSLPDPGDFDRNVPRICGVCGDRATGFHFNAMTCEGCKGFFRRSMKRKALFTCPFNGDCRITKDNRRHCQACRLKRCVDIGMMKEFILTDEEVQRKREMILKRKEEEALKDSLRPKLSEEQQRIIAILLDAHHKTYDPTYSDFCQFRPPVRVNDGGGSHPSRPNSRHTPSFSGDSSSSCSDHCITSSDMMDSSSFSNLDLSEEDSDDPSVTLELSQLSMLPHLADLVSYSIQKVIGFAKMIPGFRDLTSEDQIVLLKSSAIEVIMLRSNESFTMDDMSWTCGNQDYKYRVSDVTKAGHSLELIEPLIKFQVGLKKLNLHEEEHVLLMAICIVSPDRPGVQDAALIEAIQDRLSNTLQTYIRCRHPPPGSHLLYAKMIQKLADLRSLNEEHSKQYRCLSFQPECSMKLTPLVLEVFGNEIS

Compound: C=C1/C(=C\C=C2/CCC[C@]3(C)[C@@H]([C@H](C)COCC4=CCCCC4(C)C)CC[C@@H]23)C[C@@H](O)C[C@@H]1O [Analog 1d]
- Transcriptional Activity ED50: 0.052 µM
